This is an account of results in PMC2574903 (Biochimica et biophysica acta, 2008).

In the test the target is T1, carboxylesterase activity of human THP-1 cell lysates (CES1) (Homo sapiens, UniProt P23141).
T1 sequence (P23141 18-567): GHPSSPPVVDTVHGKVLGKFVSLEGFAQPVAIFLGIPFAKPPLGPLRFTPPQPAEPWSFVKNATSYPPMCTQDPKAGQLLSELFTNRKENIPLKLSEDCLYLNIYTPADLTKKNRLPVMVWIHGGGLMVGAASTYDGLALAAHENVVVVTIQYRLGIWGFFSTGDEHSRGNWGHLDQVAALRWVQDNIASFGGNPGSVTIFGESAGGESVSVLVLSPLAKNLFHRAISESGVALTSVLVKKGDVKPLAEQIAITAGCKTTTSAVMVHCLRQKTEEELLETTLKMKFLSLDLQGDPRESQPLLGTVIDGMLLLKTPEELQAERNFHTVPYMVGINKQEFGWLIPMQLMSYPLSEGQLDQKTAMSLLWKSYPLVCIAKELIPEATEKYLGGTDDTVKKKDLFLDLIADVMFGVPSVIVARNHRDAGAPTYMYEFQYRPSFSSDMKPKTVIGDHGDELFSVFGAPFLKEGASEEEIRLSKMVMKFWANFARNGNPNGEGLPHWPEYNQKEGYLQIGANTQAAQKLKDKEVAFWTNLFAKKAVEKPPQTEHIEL
Description: biochemical.
The IC50 is the concentration at which inhibition is half-maximal. A lower IC50 goes with greater potency in that assay. For `COP(=O)(OC)Oc1ccc([N+](=O)[O-])cc1` [Methyl paraoxon], half-maximal inhibition (IC50) was put at 49000 ± 12000 pM.
`CCOP(=O)(OCC)Oc1nc(Cl)c(Cl)cc1Cl` [Chlorpyrifos oxon] gave a half-maximal inhibitory concentration (IC50) of 210 ± 30 pM.
As for `CCOP(=O)(OCC)Oc1ccc([N+](=O)[O-])cc1` [Paraoxon], the half-maximal inhibitory concentration (IC50) came to 290 ± 120 pM.
